Results from patent US20260384443A1, “THIADIAZOLES AS GLUTAMINASE I INHIBITORS” (published 2026).

Chains of the proteins cited; added tags and fusions are not shown. Residues count along the entry.
UniProt O94925, 73-669 limits assumed: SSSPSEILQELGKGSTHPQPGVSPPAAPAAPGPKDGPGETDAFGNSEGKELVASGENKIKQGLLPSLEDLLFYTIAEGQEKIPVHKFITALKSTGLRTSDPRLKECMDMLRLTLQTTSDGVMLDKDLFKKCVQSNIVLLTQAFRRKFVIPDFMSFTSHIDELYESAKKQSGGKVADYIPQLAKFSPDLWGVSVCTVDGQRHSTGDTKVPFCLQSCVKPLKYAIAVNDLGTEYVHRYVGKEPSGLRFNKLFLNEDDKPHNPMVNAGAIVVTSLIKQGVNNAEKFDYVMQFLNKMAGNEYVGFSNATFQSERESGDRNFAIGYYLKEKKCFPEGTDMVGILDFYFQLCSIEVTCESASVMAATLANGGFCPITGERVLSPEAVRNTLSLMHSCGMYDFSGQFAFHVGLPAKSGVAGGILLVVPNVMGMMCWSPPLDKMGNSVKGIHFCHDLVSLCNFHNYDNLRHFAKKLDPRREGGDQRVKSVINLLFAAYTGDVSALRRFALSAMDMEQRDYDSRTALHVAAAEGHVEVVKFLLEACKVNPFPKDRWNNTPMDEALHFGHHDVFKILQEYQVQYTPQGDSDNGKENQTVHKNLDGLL
UniProt O94925, 55-669 limits assumed: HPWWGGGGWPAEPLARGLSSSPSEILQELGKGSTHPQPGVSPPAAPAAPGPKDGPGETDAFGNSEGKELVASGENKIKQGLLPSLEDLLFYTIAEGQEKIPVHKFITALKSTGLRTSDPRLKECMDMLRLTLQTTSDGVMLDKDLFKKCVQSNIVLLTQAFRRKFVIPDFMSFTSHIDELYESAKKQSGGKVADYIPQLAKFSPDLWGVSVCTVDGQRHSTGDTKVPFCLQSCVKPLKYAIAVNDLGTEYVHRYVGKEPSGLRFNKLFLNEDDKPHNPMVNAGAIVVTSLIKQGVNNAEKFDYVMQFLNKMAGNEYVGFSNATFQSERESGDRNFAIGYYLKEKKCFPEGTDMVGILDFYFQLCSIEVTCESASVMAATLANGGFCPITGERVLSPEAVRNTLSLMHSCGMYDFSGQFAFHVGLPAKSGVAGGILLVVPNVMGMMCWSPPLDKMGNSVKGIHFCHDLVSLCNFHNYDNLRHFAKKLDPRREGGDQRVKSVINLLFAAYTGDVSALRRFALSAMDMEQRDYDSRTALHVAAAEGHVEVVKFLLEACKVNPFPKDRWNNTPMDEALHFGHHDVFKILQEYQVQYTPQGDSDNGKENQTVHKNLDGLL

What was measured:
GLS1 [1] = biological target: T1, GLS1 (Homo sapiens, UniProt O94925); experiment: GLS1 cell assay: intracellular glutamate level in A549 cells (Glutamine/Glutamate-Glo); conditions: read-out: Cell IC50, 2 h compound pre-incubation, then 24 h with L-Gln
GLS1 [2] = biological target: T1, GLS1; experiment: GLS1 enzymatic assay (three-stage coupled endpoint assay: GLS1/GDH/diaphorase, resorufin fluorescence); conditions: read-out: Enzyme IC50

| SMILES | pIC50 (GLS1 [1]) | pIC50 (GLS1 [2]) |
| --- | --- | --- |
| Cc1ccccc1CN1CCSC(CC(=O)Nc2nnc(N[C@@H]3CCN(c4cccnn4)C3)s2)C1 (stereo partly shown) | 8.25 | 7.73 |
| CC(C)Oc1ccccc1CN1CC2(CC(SCC(=O)Nc3nnc(N[C@@H]4CCN(c5cccnn5)C4)s3)C2)C1 | 7.39 | 7.71 |
| Cc1cc(C(F)(F)F)cc(CN2CCC(CC(=O)Nc3nnc(N[C@@H]4CCN(c5cccnn5)C4)s3)CC2)n1 | 8.03 | 7.37 |
| O=C(Nc1nnc(N[C@@H]2CCN(c3cccnn3)C2)s1)C1CC2(CCN(Cc3cccc(OC(F)F)c3)CC2)CO1 (stereo partly shown) | 8.47 | 7.45 |
| Cc1ccccc1CN1CCC([C@H](C(=O)Nc2nnc(N[C@@H]3CCN(c4cccnn4)C3)s2)C2CCC2)CC1 (single isomer, unassigned) [Example 219] | 7.61 | 7.14 |
| CC(C(=O)Nc1nnc(N[C@@H]2CCN(c3cccnn3)C2)s1)C1CCN(Cc2cncc(C(F)(F)F)c2)CC1 (stereo partly shown) | 7.85 | 7.46 |
| Cc1cc(C)c(CN2CCC(CC(=O)Nc3nnc(N[C@@H]4CCN(c5cccnn5)C4)s3)CC2)c(C)c1 | 7.97 | 7.19 |
| CN(c1nnc(NC(=O)CC2CN(C3CCC(C)(C)CC3)CCO2)s1)[C@@H]1CCN(c2cccnn2)C1 (stereo partly shown) | 7.28 | 6.63 |
| O=C(CC1CN(C2CCC3(CCC3)CC2)CCO1)Nc1nnc(N[C@@H]2CCN(c3cccnn3)C2)s1 (stereo partly shown) | 8.05 | 7.44 |
| O=C(CC1CCC2(CC1)CCN(Cc1ccc(Br)cn1)CC2)Nc1nnc(N[C@@H]2CCN(c3cccnn3)C2)s1 | 7.62 | 7.76 |
| O=C(CN1CCN(Cc2ccc(F)c(F)c2)CC1)Nc1nnc(N[C@@H]2CCN(c3cccnn3)C2)s1 | 8.16 |  |
| O=C(CN1CCN(Cc2cc(F)cc(C(F)(F)F)c2)CC1)Nc1nnc(N[C@@H]2CCN(c3cccnn3)C2)s1 | 8.85 |  |
| O=C(Nc1nnc(N[C@@H]2CCN(c3cccnn3)C2)s1)[C@H]1CC2(CCN(Cc3ccccc3OC3CCC3)CC2)CO1 (single isomer, unassigned) [Example 213] | 8.10 | 7.17 |
| O=C(CC1CCCCN(Cc2cc(F)cc(F)c2)C1)Nc1nnc(N[C@@H]2CCN(c3cccnn3)C2)s1 (stereo partly shown) | 8.21 | 7.30 |
| O=C(CSC1CCN(Cc2ccccc2OC2CCC2)CC1)Nc1nnc(N[C@@H]2CCN(c3cccnn3)C2)s1 | 8.77 | 7.65 |
| Cc1ccccc1CN1CCC([C@H](C(=O)Nc2nnc(N[C@@H]3CCN(c4cccnn4)C3)s2)C(C)C)CC1 (single isomer, unassigned) [Example 224] | 7.05 | 6.92 |
| O=C(CN1CCN(Cc2cc(F)c3c(c2)CCC3)CC1)Nc1nnc(N[C@@H]2CCN(c3cccnn3)C2)s1 | 8.92 |  |
| Cc1cc(C)c(CN2CCC3(CCC(CC(=O)Nc4nnc(N[C@@H]5CCN(c6cccnn6)C5)s4)CC3)CC2)c(C)n1 | 7.85 | 7.36 |
| CC(C)Oc1ccccc1CN1CCC(CC(=O)Nc2nnc(N[C@@H]3CCN(c4cccnn4)C3)s2)CC1 | 7.09 | 7.25 |
| O=C(C[C@@H]1CCCN(Cc2ccccc2OC2CCC2)C1)Nc1nnc(N[C@@H]2CCN(c3cccnn3)C2)s1 | 7.29 | 7.30 |
| CC(C)Oc1ccccc1CCN1CCC[C@@H](CC(=O)Nc2nnc(N[C@@H]3CCN(c4cccnn4)C3)s2)C1 | 7.08 | 7.49 |

| SMILES | pIC50 (GLS1 [1]) | pIC50 (GLS1 [2]) |
| --- | --- | --- |
| CC(C)Oc1cccnc1CN1CCC(CC(=O)Nc2nnc(N[C@@H]3CCN(c4cccnn4)C3)s2)CC1 | 6.57 | 7.42 |
| Cc1cc(CN2CCC[C@@H](CC(=O)Nc3nnc(N[C@@H]4CCN(c5cccnn5)C4)s3)C2)cc(C)c1F | 8.11 | 7.57 |
| O=C(CN1CCN(Cc2ccc(C(F)(F)F)cc2Cl)CC1)Nc1nnc(N[C@@H]2CCN(c3cccnn3)C2)s1 | 8.70 |  |
| O=C(CN1CCN(Cc2ccc(OC(F)(F)F)cc2)CC1)Nc1nnc(N[C@H]2CN(c3cccnn3)C[C@@H]2F)s1 | 8.77 |  |
| CC(C)Oc1cccnc1CN1CCC(CC(=O)Nc2nnc(N[C@@H]3CCN(c4cccnn4)C3)s2)CC1(C)C (stereo partly shown) | 6.49 | 7.15 |
| CC(C)Oc1ccccc1CN1CCC[C@@H](SCC(=O)Nc2nnc(N[C@@H]3CCN(c4cccnn4)C3)s2)C1 (single isomer, unassigned) [Example 100] | 8.59 | 7.50 |
| Cc1cc(CN2CCC[C@@H](CC(=O)Nc3nnc(N[C@@H]4CCN(c5cccnn5)C4)s3)C2)c(C)s1 | 7.63 | 7.53 |
| Cc1cc(F)cc(CN2CC3(CCCN(CC(=O)Nc4nnc(N[C@@H]5CCN(c6cccnn6)C5)s4)C3)C2)c1 | 8.51 | 7.78 |
| CC1(C)CCC(CN2CCSC(CC(=O)Nc3nnc(N[C@@H]4CCN(c5cccnn5)C4)s3)C2)CC1 (stereo partly shown) | 8.68 | 7.49 |
| Cc1cc(CN2CCC[C@@H](CC(=O)Nc3nnc(N[C@@H]4CCN(c5cccnn5)C4)s3)C2)cc(OC(F)F)c1 | 8.21 | 7.67 |
| CCN1CCN(Cc2cccc(OC(F)(F)F)c2)[C@H](CC(=O)Nc2nnc(N[C@@H]3CCN(c4cccnn4)C3)s2)C1 (single isomer, unassigned) [Example 206] | 8.00 | 7.37 |
| Cc1c(Cl)cc(CN2CCN(CC(=O)Nc3nnc(N[C@@H]4CCN(c5cccnn5)C4)s3)CC2)cc1Cl | 9.05 |  |
| O=C(CN1CCN(Cc2cc(Cl)cc(C(F)(F)F)c2)CC1)Nc1nnc(N[C@@H]2CCN(c3cccnn3)C2)s1 | 8.89 |  |
| Cc1ccc(CN2CCN(CC(=O)Nc3nnc(N[C@@H]4CCN(c5cccnn5)C4)s3)CC2)cc1OC(F)F | 8.54 |  |
| O=C(CN1CCN(Cc2ccccc2OC(F)(F)F)CC1)Nc1nnc(N[C@@H]2CCN(c3cccnn3)C2)s1 | 8.52 |  |
| O=C(CN1CCN(Cc2ccc(C(F)(F)F)c(F)c2)CC1)Nc1nnc(N[C@@H]2CCN(c3cccnn3)C2)s1 | 9.05 |  |
| O=C(CN1CCN(Cc2cccc(OC(F)(F)F)c2)CC1)Nc1nnc(N[C@@H]2CCN(c3cccnn3)C2)s1 | 8.96 |  |
| O=C(CN1CCN(Cc2ccc(OC(F)(F)F)cc2)CC1)Nc1nnc(N[C@@H]2CCN(c3ccc(Cl)nn3)C2)s1 | 8.52 |  |
| O=C(CN1CCN(Cc2cc(F)cc(Br)c2)CC1)Nc1nnc(N[C@@H]2CCN(c3cccnn3)C2)s1 | 8.77 |  |
| O=C(CN1CCN(Cc2cccc(OC(F)F)c2)CC1)Nc1nnc(N[C@@H]2CCN(c3cccnn3)C2)s1 | 8.12 |  |

Now from value to compound:

| pIC50 (GLS1 [1]) | pIC50 (GLS1 [2]) | SMILES |
| --- | --- | --- |
| 8.25 | 7.80 | O=C(CC1CCC2(CC1)CCN(Cc1cncc(Cl)c1)CC2)Nc1nnc(N[C@@H]2CCN(c3cccnn3)C2)s1 |
| 7.51 | 7.47 | CC1(C)CCC(N2CCCOC(CC(=O)Nc3nnc(N[C@@H]4CCN(c5cccnn5)C4)s3)C2)CC1 (stereo partly shown) |
| 8.96 |  | COc1cc(CN2CCN(CC(=O)Nc3nnc(N[C@@H]4CCN(c5cccnn5)C4)s3)CC2)ccc1C(F)(F)F |
| 8.40 | 7.70 | CC(C)Sc1ccccc1CN1CC2(COC(CC(=O)Nc3nnc(N[C@@H]4CCN(c5cccnn5)C4)s3)C2)C1 (stereo partly shown) |
| 8.20 |  | O=C(CN1CCN(Cc2cc(F)cc(F)c2)CC1)Nc1nnc(N[C@@H]2CCN(c3cccnn3)C2)s1 |
| 7.07 | 7.13 | CN1CCN(C2CCC(C)(C)CC2)CC1CC(=O)Nc1nnc(N[C@@H]2CCN(c3cccnn3)C2)s1 (stereo partly shown) |
| 7.40 | 6.93 | Cc1ccccc1CN1CCC(C(CC2CC2)C(=O)Nc2nnc(N[C@@H]3CCN(c4cccnn4)C3)s2)CC1 (stereo partly shown) |
| 7.92 | 7.27 | CC1(C)CC(CN2CCC(CC(=O)Nc3nnc(N[C@@H]4CCN(c5cccnn5)C4)s3)CC2)CC(C)(C)C1 |
| 8.01 | 7.49 | CC(c1cc(F)cc(F)c1)N1CCC[C@@H](CC(=O)Nc2nnc(N[C@@H]3CCN(c4cccnn4)C3)s2)C1 (stereo partly shown) |
| 7.84 | 7.34 | CN1CCN(Cc2cccc(OC(F)(F)F)c2)C(CC(=O)Nc2nnc(N[C@@H]3CCN(c4cccnn4)C3)s2)C1 (stereo partly shown) |
| 7.87 | 6.93 | COC(C(=O)Nc1nnc(N[C@@H]2CCN(c3cccnn3)C2)s1)C1CCN(Cc2cc(C)cc(C)c2)CC1 (stereo partly shown) |
| 7.53 | 7.08 | Cc1ccccc1CN1CCC([C@@H](CC2CC2)C(=O)Nc2nnc(N[C@@H]3CCN(c4cccnn4)C3)s2)CC1 (single isomer, unassigned) [Example 222] |
| 7.89 | 6.96 | CO[C@@H](C(=O)Nc1nnc(N[C@@H]2CCN(c3cccnn3)C2)s1)C1CCN(Cc2ccc(OC(F)(F)F)cc2)CC1 (single isomer, unassigned) [Example 68] |
| 8.23 | 7.34 | CC1(CC(=O)Nc2nnc(N[C@@H]3CCN(c4cccnn4)C3)s2)CCN(Cc2ccc(OC(F)(F)F)cc2)CC1 |
| 7.13 | 7.03 | CC(C)N1CCN(Cc2cccc(OC(F)F)c2)[C@H](CC(=O)Nc2nnc(N[C@@H]3CCN(c4cccnn4)C3)s2)C1 (single isomer, unassigned) [Example 250] |
| 7.47 | 6.59 | CCO[C@@H](C(=O)Nc1nnc(N[C@@H]2CCN(c3cccnn3)C2)s1)C1CCN(Cc2ccc(OC(F)F)cc2)CC1 (single isomer, unassigned) [Example 230] |
| 7.79 | 7.26 | CCN1CCN(Cc2cccc(OC(F)(F)F)c2)C(CC(=O)Nc2nnc(N[C@@H]3CCN(c4cccnn4)C3)s2)C1 (stereo partly shown) |
| 8.57 |  | O=C(CN1CCN(Cc2cc(F)cc(Cl)c2)CC1)Nc1nnc(N[C@@H]2CCN(c3cccnn3)C2)s1 |
| 8.60 |  | O=C(CN1CCN(Cc2c(F)cc(Cl)cc2Cl)CC1)Nc1nnc(N[C@@H]2CCN(c3cccnn3)C2)s1 |
| 8.47 |  | COc1c(F)cc(CN2CCN(CC(=O)Nc3nnc(N[C@@H]4CCN(c5cccnn5)C4)s3)CC2)cc1F |
| 8.89 |  | O=C(CN1CCN(Cc2cc(OC(F)(F)F)ccc2Cl)CC1)Nc1nnc(N[C@@H]2CCN(c3cccnn3)C2)s1 |
| 9.00 |  | O=C(CN1CCN(Cc2ccc(OC(F)(F)F)c(Cl)c2)CC1)Nc1nnc(N[C@@H]2CCN(c3cccnn3)C2)s1 |
| 8.08 |  | O=C(CN1CCN(Cc2cccc(F)c2F)CC1)Nc1nnc(N[C@@H]2CCN(c3cccnn3)C2)s1 |

pIC50: −log10 of the molar value.
